Data taken from US12173007B2, “Imidazopyridazine IL-17 inhibitor compounds” (Janssen Pharmaceutica NV, priority 2021, dated 2024).

By UniProt entry, the sequences of proteins in these tests, tags left out. Chains listed by the source or under a name are the forms on record and can include a tag or linker. Residues count along the entry.
UniProt Q16552, 24-154 with tags or gaps K93Q: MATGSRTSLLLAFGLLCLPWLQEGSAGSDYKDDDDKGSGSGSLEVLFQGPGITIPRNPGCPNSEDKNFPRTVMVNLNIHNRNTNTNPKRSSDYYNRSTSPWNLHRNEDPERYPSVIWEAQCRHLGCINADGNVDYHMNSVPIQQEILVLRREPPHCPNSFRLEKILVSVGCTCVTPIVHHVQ

Columns and labels:
[1] = tested on: IL-17A-induced G-CSF production in human normal keratinocyte (NHK); test: NHK assay: IL-17A-induced G-CSF production in normal human keratinocytes; details: read-out: NHK IC50; IL-17A 5 ng/mL, 24 h, G-CSF by HTRF; average if tested more than once
Description: IL-17A acts directly on keratinocytes through binding to dimeric receptor IL-17RA/RC and drives the production of a number of inflammatory mediators known to be elevated in psoriasis lesional tissue. IL-17A small molecule inhibitors that block the IL-17A to interact with IL-17R would inhibit the IL-17A signaling in its targeted cells such as keratinocytes. The compound functional activity is evaluated for its impact on IL-17A-induced G-CSF production in human normal keratinocyte (NHK).
Adult normal human keratinocytes are cultured in keratinocyte growth medium (Lonza) in a flask till reaching ˜90% confluence, then cells are transferred to a 384-well plate at density of 3000-4000 cell/well. Recombinant human IL-17A (Gibco PHC9174) is pre-incubated with titrated compound or DMSO for 1 h at rt then added to the cell culture plate. The final concentration of IL-17A is 5 ng/mL and DMSO is 0.2%, in the culture containing 5% FBS. Cells are cultured/treated for 24 h at 37° C. Supernatants are collected and G-CSF production is measured through HTRF technology using Human G-CSF Kit (CisBio). G-CSF concentration was extrapolated from the standard curve and IC50 is determined using GraphPad Prism. Cell viability is also evaluated using CellTiter-Glo kit (Promega) and effect of compound on cell viability is compared to DMSO control.

[2] = target: T1, IL-17A(FLAG-Tagged): IL-17RA(His-Tagged) binding (Homo sapiens, UniProt Q16552, K93Q); test: IL-17A(FLAG-tagged):IL-17RA(His-tagged) binding disruption Eu-HTRF assay, Protocol 1; details: read-out: HTRF IC50 Protocol 1; FLAG-IL-17A 2.5 nM; average if tested more than once
Text: (§1) IL-17A(FLAG-Tagged): IL-17RA(His-Tagged) Binding Disruption Eu-HTRF Assay
(§2) An antibody directed against the FLAG tag of IL-17A (SEQ ID NO: 1) is labeled with the HTRF donor chromophore (Europium-cryptate). IL-17A is present as a dimer that is “locked into” this quaternary structure due to the formation of loop-spanning […] disulfide bridges. The construct of IL-17RA used in the assay excludes the […] portion of the receptor and is fused to a C-terminal 10×His tag (SEQ ID NO:2). An antibody directed against the His tag of the IL-17RA chimera is labeled with the HTRF acceptor chromophore (“D2”). The fluorescence-resonance energy transfer (FRET) depends on the vicinity of the donor chromophore to the acceptor, and interruption of the binding between the IL-17A and IL-17RA causes the reduction/loss of FRET. Therefore, this assay allows to evaluate the compound effect on the binding IL-17A and IL-17RA by monitoring the fluorescence intensity of donor vs acceptor. The assay was run using either Protocol 1 or Protocol 2 as described below.
Protocol 1. 40 nl of 2-fold serial diluted compound solution for total 22 dilution points is added into each well of a 1536-well, white, low-volume, non-binding plate (Greiner #782904), then 2 μl of FLAG tagged IL-17A at 2×final concentration (2.5 nM) in solution of PBS+0.01% Triton-X100 is added to each well. The assay plate is briefly centrifuged then incubated for 1 h at rt. A mixed solution is prepared containing 2×5 nM 10HIS×IL-17RA, 2×2.5 nM Eu-anti-FLAG (CISBIO), 2×5 nM D2-anti-HIS (CISBIO) in PBS+0.01% Triton-X100+200 mM Potassium Fluoride (Sigma 60238) and 2 μl of mix is added to each well of the assay plate. The plate is briefly centrifuged then incubated for 2 h at rt. The HTRF intensities at the wavelength of donor (620 nm) and acceptor (665 nm) are measured using BMG Pherastar. The ratio between intensities at two wavelengths is calculated and plotted against the compound concentration and the data is fitted to a one-site competition model to yield IC50 of the compound.

[3] = target: T1, IL-17A(FLAG-Tagged): IL-17RA(His-Tagged) binding; test: IL-17A(FLAG-tagged):IL-17RA(His-tagged) binding disruption Eu-HTRF assay, Protocol 2; details: read-out: HTRF IC50 Protocol 2; FLAG-IL-17A 1 nM; average if tested more than once
Text: as §1, §2
Protocol 2. […] The HTRF intensities at the wavelength of donor (615 nm) and acceptor (665 nm) are measured using BMG Pherastar. The ratio between intensities at two wavelengths is calculated and plotted against the compound concentration and the data is fitted to a one-site competition model to yield IC50 of the compound.

SMILES | IC50 [2] | IC50 [3] | IC50 [1]
CC(C)n1nccc1C(=O)N[C@H](c1cn2ncc(CN3CC4C(CNC3=O)C4(F)F)cc2n1)C1CCC(F)(F)CC1 (some centres unmarked) | > 100 nM | – | < 50 nM
O=C(N[C@H](c1cn2ncc(CN3CC4C(CNC3=O)C4(F)F)cc2n1)C1CCC(F)(F)CC1)c1nonc1C1CC1 (single isomer, unassigned) [Example 4] | 50 to 100 nM | – | > 100 nM
Cc1nonc1C(=O)N[C@H](c1cn2ncc(CN3CC4C(CNC3=O)C4(F)F)cc2n1)C1CCC(F)(F)CC1 (single isomer, unassigned) [Example 101] | < 50 nM | – | < 50 nM
COC[C@H](c1cnn2cc([C@@H](NC(=O)c3nonc3C)C3CCC(F)(F)CC3)nc2c1)N1CC2C(CNC1=O)C2(F)F (single isomer, unassigned) [Example 105] | – | > 100 nM | > 100 nM

Second part, led by results:

IC50 [2] | IC50 [3] | SMILES | IC50 [1]
< 50 nM | – | O=C(N[C@H](c1cn2ncc(CN3CC4C(CNC3=O)C4(F)F)cc2n1)C1CCC(F)(F)CC1)c1nonc1C1CC1 (single isomer, unassigned) [Example 3] | < 50 nM
> 100 nM | – | Cc1nonc1C(=O)N[C@H](c1cn2ncc(CN3CC4C(CNC3=O)C4(F)F)cc2n1)C1CCC(F)(F)CC1 (single isomer, unassigned) [Example 100] | > 100 nM
– | < 50 nM | COC[C@H](c1cnn2cc([C@@H](NC(=O)c3nonc3C)C3CCC(F)(F)CC3)nc2c1)N1CC2C(CNC1=O)C2(F)F (single isomer, unassigned) [Example 104] | < 50 nM
